Experimental data published in US4450173A, “Compounds and method for treatment or prophylaxis of cardiac disorders” (American Hospital Supply Corporation, priority 1982, dated 1984).
Structures can show the parent of a compound that is named as a salt.

Sequences of proteins named here, by UniProt entry; tags and fusion partners are left off.
UniProt Q8K4Z4, whole entry: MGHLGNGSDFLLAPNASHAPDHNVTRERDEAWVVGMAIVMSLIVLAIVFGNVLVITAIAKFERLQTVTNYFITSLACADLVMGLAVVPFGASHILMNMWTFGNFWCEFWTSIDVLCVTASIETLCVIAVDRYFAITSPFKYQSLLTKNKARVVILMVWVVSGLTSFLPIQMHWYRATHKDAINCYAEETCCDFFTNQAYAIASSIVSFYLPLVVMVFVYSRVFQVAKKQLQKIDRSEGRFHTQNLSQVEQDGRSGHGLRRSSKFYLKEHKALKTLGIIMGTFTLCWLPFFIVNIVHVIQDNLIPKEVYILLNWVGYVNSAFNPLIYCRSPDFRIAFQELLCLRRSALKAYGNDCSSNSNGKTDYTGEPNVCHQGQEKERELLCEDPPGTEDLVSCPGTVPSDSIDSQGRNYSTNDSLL

Molecular target: guinea pig tracheal strips (Cavia porcellus, UniProt Q8K4Z4)
Format: cell-based
Conditions: carbachol tension, isoproterenol, 60 minute incubation, pA2 = -log KB
Experimental: Each tissue was suspended between a fixed glass rod and a Statham® Universal Transducer connected to a Beckman® recorder. Atria were allowed to beat spontaneously under a loading tension of approximately 0.5 gm. Intrinsic depressant for stimulant activity was determined for each compound by progressively increasing concentrations in the tissue baths at 60-minute intervals. Tissues were not washed between increments. […] Changes in rate in response to isoproterenol were measured in the absence and presence of test compounds. Spiral strips of guinea pig trachea were suspended under 5 gm resting tension and incubated with phentolamine, tropolone and cocaine. Active tension was generated by addition of carbachol (3.0×10^-7 M) and decreases in tension in response to isoproterenol were quantitated. Cumulative concentration-response curves were produced with isoproterenol both before and after 60 minute incubation of test compounds with atria and trachea. The blocking potency of test compounds was estimated by computing pA2 values (-log KB) by the method of Furchgott, The Pharmacological Differentiation of Adrenergic Receptors, Ann. […] A ratio greater than one indicates cardioselectivity.

pA2 Trachea | Structure (SMILES)
6.2 | CCOC(=O)CNCC(O)COc1cccc2ccccc12 (centres unmarked) [Example II, Ethyl N-[[2-Hydroxy-3-(1-naphthoxy]propyl]glycinate Oxalate Hemihydrate]
4.9 | CCOC(=O)CCNCC(O)COc1ccc(OC)cc1 (centres unmarked) [XXV]
